Biological target: TNF (Homo sapiens, UniProt P01375)
Assay: TNF cytotoxicity on WISH cells with cycloheximide, neutral red readout
Format: cell-based
Conditions: TNF preincubated 30 minutes with receptor, heparin/Clexane added just before application to cells (columns 7 vs 11)
Method: To test the effectiveness of inhibition of activity of TNF (see Examples 1 and 2), WISH cells were seeded at a concentration of 30,000 cells per well in 100 μl medium. Sixteen hours later, when the cells had reached about 90% confluence, TNF, receptors, heparin, or Clexane® were added to the wells. The final concentrations added to the respective wells are as follows:
TBPI (p55 TNF-receptor), 5 ng/ml
TBPII (p75 TNF-receptor), 10 ng/ml
The different combinations were mixed in an Eppendorf tube reaching a final volume of 300 μl. Then, 50 μl were added to the respective well. If incubation was required, it was conducted in the Eppendorf tube for 30 minutes at 37° C., in a mixture or separately. After each of the different combinations were added, 50 μl cycloheximide was added to each well. […] The dye was extracted from surviving cells with a Sorensen's solution and the results were read in an ELISA reader.
WISH cells were seeded at a concentration of 30,000 cells/well in 100 μl medium. […] Following the one hour incubation, the dye was extracted with a Sorensen's solution, and the results were read in an ELISA reader. […]
After addition of the different combinations, cyclohexamide was added to each well (50 μl) for a final concentration of 25 μg/ml. […] Following the one hour incubation, the dye was extracted with a Sorensen's solution and the results were read in an ELISA reader.

The chains behind the UniProt entries cited, without tags or fusion partners. Residues count along the entry.
UniProt P01375, 77-233 limits assumed: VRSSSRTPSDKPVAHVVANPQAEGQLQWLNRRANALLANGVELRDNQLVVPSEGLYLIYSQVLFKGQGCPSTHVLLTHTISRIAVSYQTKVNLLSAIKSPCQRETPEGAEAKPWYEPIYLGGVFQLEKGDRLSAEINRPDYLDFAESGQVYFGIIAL

Substance: p55 sTNF-R: soluble p55 TNF-receptor, extracellular part of the p55 TNF-R
- TNF inhibition by soluble receptor following heparin/Clexane addition: 15%

From patent publication US6608044B1, “Inhibition of TNF activity” (Applied Research Systems ARS Holding N.V., priority 1998, dated 2003)
